Data published in patent US20070178439A1, “Control of es cell self renewal and lineage specification, and medium therefor” (priority 2003, published 2007).

Test system: ES cells
Assay: ES cell self-renewal versus differentiation in serum-free N2B27 adherent culture with passaging
Assay type: cell-based, mouse
Settings: N2B27, in the presence of LIF
Experimental: ES cells were maintained without feeder cells. For serum-free culture, ES cells were plated onto gelatin-coated plates in N2B27 medium (Ying and Smith, 2003) supplemented with 10 ng/ml LIF (Sigma) and 10 ng/ml BMP4 or 200 ng/ml GDF6 (R&D Systems). Cells were passaged every 2-4 days using either enzyme-free Cell Dissociation Buffer (Invitrogen) or 0.025% trypsin/1% chicken serum. Dissociated cells were harvested in N2B27 and pelleted. Supernatant was aspirated and the cell pellet resuspended in N2B27 and replated directly. For single cell cloning, a finely drawn Pasteur pipette pre-loaded with N2B27 was used to pick individual cells into 10 μl drops. Drops were then singly transferred to 96-well plates pre-loaded with 150 μl N2B27 per well with LIF or LIF plus BMP4. After 8 days, ES cell colonies were identified and passaged. To produce chimaeras, ES cells were injected into C57Bl/6 blastocysts. Germline transmission was tested by mating male chimaeras with C57Bl/6 females.

B1: BMP2: BMP receptor ligand used in place of BMP4 with LIF (protein, UniProt P12643 283-396, looked up)
Bone morphogenetic protein 2: QAKHKQRKRLKSSCKRHPLYVDFSDVGWNDWIVAPPGYHAFYCHGECPFPLADHLNSTNHAIVQTLVNSVNSKIPKACCVPTELSAISMLYLDENEKVVLKNYQDMVVEGCGCR
B1 was tested, and the “ES cell self-renewal with TGF-β superfamily ligand or other factor in place of BMP4” value was “enhanced self-renewal”.
